Test results reported in PMC8718112, “Functional independence of endogenous μ- and δ-opioid receptors co-expressed in cholinergic interneurons” (eLife, 2021).

Protein sequences, listed by entry. Tags and fused reporters are not part of them.
UniProt P42866, whole entry: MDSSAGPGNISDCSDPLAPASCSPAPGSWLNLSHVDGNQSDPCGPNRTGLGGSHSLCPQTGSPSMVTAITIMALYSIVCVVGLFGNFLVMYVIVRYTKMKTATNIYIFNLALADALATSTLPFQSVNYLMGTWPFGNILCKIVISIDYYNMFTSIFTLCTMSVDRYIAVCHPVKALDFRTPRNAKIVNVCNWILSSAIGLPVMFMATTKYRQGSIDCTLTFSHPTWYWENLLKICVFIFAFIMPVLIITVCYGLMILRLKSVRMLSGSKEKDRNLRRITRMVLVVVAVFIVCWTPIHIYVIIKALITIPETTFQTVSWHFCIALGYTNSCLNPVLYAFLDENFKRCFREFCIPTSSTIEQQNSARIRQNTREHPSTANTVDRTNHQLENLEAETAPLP

Target: T1, µ-opioid receptor (MOR) (Mus musculus, UniProt P42866)
T1 construct: gene Oprm1

CN1CC[C@]23c4c5ccc(O)c4O[C@H]2[C@@H](O)C=C[C@H]3[C@H]1C5 [morphine]
% inhibition of firing at 10 μM: 79.4 ± 5.0
